The source of these data is PubChem BioAssay (Tox21).

Values joined by “and” are separate entries in the source; they are usually repeats but may differ in a detail not shown here. Equal entries are not always repeated. The entries are a selection whose mix differs from that of the whole data set. Inconclusive results are not listed. Active and inactive are the calls of the source. Calls come from the whole dose curve.
% is set by controls: 0 for no effect and ±100 for the full control effect.

This test can be described thus: qHTS assay for small molecule agonists of the p53 signaling pathway (AID 651631). Note: nearly all actives have a fitted effect of over 15% in size. Particulars: HCT-116 p53RE-bla reporter, beta-lactamase FRET ratio, 16 h; at 73.3 µM (top of the series) unless noted. The text has this: U.S. Tox21 Program National Center for Advancing Translational Sciences [NCATS] NIH Chemical Genomics Center [NCGC] U.S. Environmental Protection Agency [EPA] National Institutes of Environmental Health Sciences [NIEHS] National Toxicology Program [NTP] U.S. Food and Drug Administration [FDA] Tox21 Assay Overview: p53, a tumor suppressor protein, is activated following cellular insult, including DNA damage and other cellular stresses. The activation of p53 regulates cell fate by inducing DNA repair, cell cycle arrest, apoptosis, or cellular senescence. The activation of p53, therefore, is a good indicator of DNA damage and other cellular stresses. The CellSensor p53RE-bla HCT-116 cell line (Invitrogen) contains a stably integrated beta-lactamase reporter gene under control of the p53 response elements. The activation of the reporter gene under culture conditions can be detected by fluorescence intensity. This cell line was used to screen the Tox21 compound library in a 1536-well plate format and to identify agonists that activate the p53 signaling pathway.
Tox21 Assay Protocol Summary: The p53RE-bla cells were dispensed at 4,000 cells/5 ul/well in 1536-well black wall/clear bottom plates using a Multidrop dispenser. After the assay plates were incubated at a 37 C/5% CO2 incubator for 5 hours, 23 nL of compounds dissolved in DMSO, positive controls or DMSO only was transferred to the assay plate by a pin tool. The plates were incubated at 37 C for 16 hours. After 1 uL of LiveBLAzerTM B/G FRET substrate was added using a Flying Reagent Dispenser, the plates were incubated at room temperature for 2 hours, and fluorescence intensity was measured by an Envision plate reader.
(In general: In qHTS, concentration-response curves come from the screen itself.)
Take `NC(=O)Nc1ccc([As](=O)(O)O)cc1`: the activation is inactive: -3.09% and inactive: 0.812%.

Consider `ClP(Cl)c1ccccc1`, for which the activation was inactive: 0.377%.

Take `O=P(Cl)(Oc1ccccc1)Oc1ccccc1`: the activation was inactive: -1.62%.

Take `CN(C(=O)Cc1ccccc1)[C@H]1CC[C@@]2(CCCO2)C[C@@H]1N1CCCC1`: the activation was inactive: -3.89%.

As for `COP(=S)(Cl)OC`, the activation was inactive: -4.89% [at 95.1 µM].

For `O=C(OC1CN2CCC1CC2)c1ccccc1` (configuration not stated), the activation is inactive: -3.02%.

For `CN(C(=O)Cc1cccc2occc12)[C@H]1CC[C@@]2(CCCO2)C[C@@H]1N1CCCC1`, the activation is inactive: -1.64%.

`CCOP(=S)(CC)Sc1ccccc1` (configuration not stated): the activation was inactive: -1.45%.

With `COC(=O)Cl`, the activation was inactive: -2.05%.

In the case of `O=[P+](Oc1ccccc1)Oc1ccccc1`, the activation was inactive: 2%.

For the molecule `CCCCO[P+](=O)OCCCC`, the activation was inactive: -1.83%.

Take `CC(C)CCCCCCCOP(OCCCCCCCC(C)C)Oc1ccccc1`: the activation is inactive: -3.37%.
